Results published in ChEMBL document CHEMBL4340553 (Bioorg Med Chem, 2019).

Experiments:
[1] = organism: Homo sapiens; assay: Selectivity index, ratio of IC50 for inhibition of VEGFR (unknown origin) to IC50 for inhibition of c-Met (unknown origin)
[2] = organism: Homo sapiens; assay: Selectivity index, ratio of IC50 for inhibition of c-Kit (unknown origin) to IC50 for inhibition of c-Met (unknown origin)
[3] = organism: Homo sapiens; assay: Selectivity index, ratio of IC50 for inhibition of FLT3 (unknown origin) to IC50 for inhibition of c-Met (unknown origin)
[4] = organism: Homo sapiens; assay: Selectivity index, ratio of IC50 for inhibition of RON (unknown origin) to IC50 for inhibition of c-Met (unknown origin)
[5] = organism: Homo sapiens; assay: Selectivity index, ratio of IC50 for inhibition of PDGFRalpha (unknown origin) to IC50 for inhibition of c-Met (unknown origin)
[6] = organism: Homo sapiens; assay: Selectivity index, ratio of IC50 for inhibition of PDGFRbeta (unknown origin) to IC50 for inhibition of c-Met (unknown origin)
[7] = organism: Homo sapiens; assay: Selectivity index, ratio of IC50 for inhibition of FLT1 (unknown origin) to IC50 for inhibition of c-Met (unknown origin)

Ratio IC50 [1]: 122 to 347
Ratio IC50 [2]: 122 to 347
Ratio IC50 [3]: 122 to 347
Ratio IC50 [4]: 122 to 347
Ratio IC50 [5]: 122 to 347
Ratio IC50 [6]: 122 to 347
Ratio IC50 [7]: 122 to 347
Structure (SMILES): COc1cc2c(Oc3ccc(NC(=O)NS(=O)(=O)Cc4ccc(F)cc4)cc3F)ccnc2cc1OCCCN1CCCC1
